IC50 data for 1 compound are collected here from patent publication US20240158392A1 (Janssen Biotech, Inc., priority 2021, published 2024).

Amino acid sequences for entries named in this document (tags omitted).
UniProt Q9H0K1, whole entry: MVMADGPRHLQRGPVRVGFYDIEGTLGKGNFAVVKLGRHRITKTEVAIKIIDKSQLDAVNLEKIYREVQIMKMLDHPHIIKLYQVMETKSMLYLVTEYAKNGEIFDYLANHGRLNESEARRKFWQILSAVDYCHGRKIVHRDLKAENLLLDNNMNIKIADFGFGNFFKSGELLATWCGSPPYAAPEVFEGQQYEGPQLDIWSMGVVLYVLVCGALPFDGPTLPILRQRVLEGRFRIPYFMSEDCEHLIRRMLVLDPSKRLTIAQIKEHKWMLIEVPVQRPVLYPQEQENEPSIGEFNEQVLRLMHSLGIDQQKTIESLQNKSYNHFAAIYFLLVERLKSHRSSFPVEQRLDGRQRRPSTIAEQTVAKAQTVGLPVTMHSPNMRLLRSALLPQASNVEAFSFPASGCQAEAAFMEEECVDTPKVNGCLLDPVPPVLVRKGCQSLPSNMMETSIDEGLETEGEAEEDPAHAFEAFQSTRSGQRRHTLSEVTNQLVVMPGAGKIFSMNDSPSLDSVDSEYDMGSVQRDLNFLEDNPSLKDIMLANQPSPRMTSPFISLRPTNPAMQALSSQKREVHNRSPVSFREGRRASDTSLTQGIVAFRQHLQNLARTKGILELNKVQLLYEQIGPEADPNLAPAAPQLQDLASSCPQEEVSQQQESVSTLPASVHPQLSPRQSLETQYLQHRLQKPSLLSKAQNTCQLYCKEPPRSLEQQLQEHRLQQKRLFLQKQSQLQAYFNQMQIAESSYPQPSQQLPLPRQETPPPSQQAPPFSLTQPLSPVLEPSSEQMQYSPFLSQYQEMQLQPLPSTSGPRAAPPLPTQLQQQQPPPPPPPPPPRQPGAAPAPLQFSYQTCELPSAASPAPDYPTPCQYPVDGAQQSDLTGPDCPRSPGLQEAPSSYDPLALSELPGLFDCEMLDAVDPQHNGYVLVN

Where only a bound is given, the exact number is not on record here.

The experiment addresses SIK2 (Homo sapiens, UniProt Q9H0K1). The experiment is described as follows: SIK2 Enzymatic Assay High Version 2 (High ATP). It is filed as biochemical. The note with it: read-out: SIK2 high ATP IC50 (μM) (Test Example 2); enzyme 6 nM, 6 mM ATP and 400 μM HDAC5tide (each 2× final concentration); 30 minutes pre-incubation, 2 hours; ADP-Glo Max luminescence. (In ADP-Glo the light output rises with the ADP produced.)

Take `CO[C@H]1CNC[C@H]1COc1cnc(C)cc1-c1ccn2nc(NC(=O)C3CC3)cc2c1` (relative stereo): the half-maximal inhibitory concentration (IC50) (commonly the concentration that gives 50% inhibition) was less than 0.000847 µM.
